Measured values taken from ChEMBL document CHEMBL2021790, “Pyridone methylsulfone hydroxamate LpxC inhibitors for the treatment of serious gram-negative infections” (J Med Chem, 2012).

Target: T1, UDP-3-O-acyl-N-acetylglucosamine deacetylase (Pseudomonas aeruginosa (strain ATCC 15692 / PAO1 / 1C / PRS 101 / LMG12228), UniProt P47205)
T1 sequence (P47205 whole entry): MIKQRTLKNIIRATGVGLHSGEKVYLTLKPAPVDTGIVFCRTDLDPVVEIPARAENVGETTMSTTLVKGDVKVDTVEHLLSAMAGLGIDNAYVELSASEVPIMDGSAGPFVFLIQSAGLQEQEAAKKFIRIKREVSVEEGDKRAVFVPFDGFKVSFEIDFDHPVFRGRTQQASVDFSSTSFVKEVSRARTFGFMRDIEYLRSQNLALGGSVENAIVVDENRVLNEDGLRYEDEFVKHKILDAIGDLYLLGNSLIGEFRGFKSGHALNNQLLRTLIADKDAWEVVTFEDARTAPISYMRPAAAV
Experiment: Inhibition of Pseudomonas aeruginosa LpxC expressed in Escherichia coli using UDP-3-O-N-acetylglucosamine substrate measured after 30 mins by mass spectrometry

IC50: 2.6 nM
Structure (SMILES): COc1ccc(-c2ccn(CC[C@](C)(C(=O)NO)S(C)(=O)=O)c(=O)c2)cc1
